In assay [1] the target is T1, CXCR4 (Homo sapiens, UniProt P61073). The experiment in a line: CXCR4 internalization assay in SUP-T1 cells. The class given is cell-based. More on the design: CXCR4 receptors endogenously expressed on SUP-T1 cells; endogenous in cells; host or cells: SUP-T1 (ATCC).
Assay [2] has as its target T1, CXCR4. The experiment in a line: Calcium mobilization assay (FLIPR Tetra) in U87.CD4.CXCR4 cells. The class given is cell-based. As to conditions: read-out: IC50 Calcium signaling (CXCL12-induced). A general note: A change in cytosolic calcium serves as a functional read-out for many receptors and channels.
Assay [3] deals with T1, CXCR4. The assay is described as follows: CXCL12^AF647 binding assay on Jurkat cells.

Protein sequences, listed by entry. Tags and fused reporters are not part of them.
UniProt P61073, whole entry: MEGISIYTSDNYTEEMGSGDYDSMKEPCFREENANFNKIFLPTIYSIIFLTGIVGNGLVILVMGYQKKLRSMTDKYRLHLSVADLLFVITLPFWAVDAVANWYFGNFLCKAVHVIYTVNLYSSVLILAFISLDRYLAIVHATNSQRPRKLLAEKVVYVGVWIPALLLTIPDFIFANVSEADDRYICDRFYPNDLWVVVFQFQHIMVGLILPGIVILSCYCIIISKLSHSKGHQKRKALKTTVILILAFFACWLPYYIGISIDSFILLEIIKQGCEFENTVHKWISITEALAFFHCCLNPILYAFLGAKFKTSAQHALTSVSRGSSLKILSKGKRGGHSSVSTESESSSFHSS

Data on one molecule can be found in article PMC5391968, “Comparison of cell-based assays for the identification and evaluation of competitive CXCR4 inhibitors” (PLoS ONE, 2017).

For orientation: IC50 means the concentration that gives 50% inhibition. Take `NCCCCN(Cc1nc2ccccc2[nH]1)[C@H]1CCCc2cccnc21` [AMD11070]: the IC50 at CXCR4 [1] came to 70.5 ± 13.1 nM; on CXCR4 [2], 12.3 ± 1.7 nM; on CXCR4 [3], 0.67 ± 0.1 nM.
